Test results taken from patent US10112926B2 (priority 2014, dated 2018).

Amino acid sequences for entries named in this document (tags omitted). A change or cut given only in a name is not applied to a line headed by its entry.
UniProt Q8NEB9, whole entry: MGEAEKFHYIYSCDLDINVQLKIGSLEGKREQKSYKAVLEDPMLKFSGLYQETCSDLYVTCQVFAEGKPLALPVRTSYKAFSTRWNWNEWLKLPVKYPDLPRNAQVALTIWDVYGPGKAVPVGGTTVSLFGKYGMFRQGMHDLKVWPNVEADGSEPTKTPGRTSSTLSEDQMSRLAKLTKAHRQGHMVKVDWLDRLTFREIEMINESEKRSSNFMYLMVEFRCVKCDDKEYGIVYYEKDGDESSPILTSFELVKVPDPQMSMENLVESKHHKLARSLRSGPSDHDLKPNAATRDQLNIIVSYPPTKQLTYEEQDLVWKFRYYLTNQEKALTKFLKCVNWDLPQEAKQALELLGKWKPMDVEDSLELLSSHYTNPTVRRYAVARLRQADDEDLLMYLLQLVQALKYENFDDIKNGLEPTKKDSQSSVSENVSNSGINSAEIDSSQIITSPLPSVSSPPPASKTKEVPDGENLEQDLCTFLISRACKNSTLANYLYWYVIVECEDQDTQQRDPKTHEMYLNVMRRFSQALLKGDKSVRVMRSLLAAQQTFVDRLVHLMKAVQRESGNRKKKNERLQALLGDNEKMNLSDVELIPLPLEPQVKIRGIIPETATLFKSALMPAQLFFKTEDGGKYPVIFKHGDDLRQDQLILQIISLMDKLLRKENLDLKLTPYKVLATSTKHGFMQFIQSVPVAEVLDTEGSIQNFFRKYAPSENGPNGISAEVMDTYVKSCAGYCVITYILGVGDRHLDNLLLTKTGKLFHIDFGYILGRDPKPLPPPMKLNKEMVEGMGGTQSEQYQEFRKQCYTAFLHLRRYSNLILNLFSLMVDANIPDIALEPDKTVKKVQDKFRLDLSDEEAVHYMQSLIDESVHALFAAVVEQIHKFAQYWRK
UniProt Q9UBF8: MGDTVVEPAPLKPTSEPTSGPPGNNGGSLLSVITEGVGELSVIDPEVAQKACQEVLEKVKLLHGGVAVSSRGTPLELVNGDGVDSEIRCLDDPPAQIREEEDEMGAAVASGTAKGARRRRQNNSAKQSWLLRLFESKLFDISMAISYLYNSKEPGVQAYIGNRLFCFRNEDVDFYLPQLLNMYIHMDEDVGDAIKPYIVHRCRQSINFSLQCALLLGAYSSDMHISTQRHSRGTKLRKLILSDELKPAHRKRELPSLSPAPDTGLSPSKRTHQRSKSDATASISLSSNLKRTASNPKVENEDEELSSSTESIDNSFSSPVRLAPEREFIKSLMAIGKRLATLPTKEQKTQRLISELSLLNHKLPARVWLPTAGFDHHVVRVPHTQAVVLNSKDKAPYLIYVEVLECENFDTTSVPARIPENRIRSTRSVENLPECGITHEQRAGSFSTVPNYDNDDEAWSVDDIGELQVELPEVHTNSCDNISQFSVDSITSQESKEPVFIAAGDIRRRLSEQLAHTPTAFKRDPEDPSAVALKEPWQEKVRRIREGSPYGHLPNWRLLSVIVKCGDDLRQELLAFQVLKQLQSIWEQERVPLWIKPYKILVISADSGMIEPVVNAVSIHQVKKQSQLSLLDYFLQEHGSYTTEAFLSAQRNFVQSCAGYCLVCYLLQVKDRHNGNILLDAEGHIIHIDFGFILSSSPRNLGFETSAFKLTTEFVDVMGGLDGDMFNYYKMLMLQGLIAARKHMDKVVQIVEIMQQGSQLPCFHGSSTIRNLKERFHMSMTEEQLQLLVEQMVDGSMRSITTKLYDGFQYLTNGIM

Tests used:
mTOR = mTOR (Homo sapiens (Human), UniProt P42345); details: read-out: Assay G mTOR IC50
Vps34 = Vps34 (Homo sapiens (Human), UniProt Q8NEB9); details: read-out: Assay C VPS34 IC50
PI 4-kinase beta = PI 4-kinase beta (Homo sapiens (Human), UniProt Q9UBF8); details: read-out: Assay D PI4Kβ IC50

Row | Compound | IC50 (mTOR) [µM] | IC50 (Vps34) [µM] | IC50 (PI 4-kinase beta) [µM]
1 | Cc1ccc(S(=O)(=O)NCCC(C)(C)O)cc1-c1cnc(N)c(-c2cnn(CC(F)(F)F)c2)c1 [Example 3, 3-(6-Amino-5-(1-(2,2,2-trifluoroethyl)-1H-pyrazol-4-yl)pyridin-3-yl)-N-(3-hydroxy-3-methylbutyl)-4-methylbenzenesulfonamide] | 3.11 |  | 
2 | Cc1cc(-c2cc(-c3cc(S(=O)(=O)N[C@H]4CC[C@H](O)CC4)ccc3C)cnc2N)on1 [Example 5.4, trans 3-(6-Amino-5-(3-methylisoxazol-5-yl)pyridin-3-yl)-N-(-4-hydroxycyclohexyl)-4-methylbenzenesulfon-amide hydrochloride] | 3 |  | 
3 | Cc1noc(-c2cc(-c3cc(S(=O)(=O)NCC(C)(C)O)ccc3C)cnc2N)n1 [Example 10, 3-(6-Amino-5-(3-methyl-1,2,4-oxadiazol-5-yl)pyridin-3-yl)-N-(2-hydroxy-2-methylpropyl)-4-methylbenzenesulfonamide, hydrochloride salt] | 4.2 |  | 
4 | Cc1cc(-c2cc(-c3cc(S(=O)(=O)N4CCCC4(C)C)ccc3C)cnc2N)on1 [Example 19.9, 5-(5-((2,2-dimethylpyrrolidin-1-yl)sulfonyl)-2-methylphenyl)-3-(3-methylisoxazol-5-yl)pyridin-2-amine trifluoroacetic acid salt] |  | > 10 | 
5 | Cc1cc(-c2cc(-c3cc(S(=O)(=O)N4CCC[C@H]4CO)ccc3C)cnc2N)on1 [Example 19.15, (S)-(1-((3-(6-amino-5-(3-methylisoxazol-5-yl)pyridin-3-yl)-4-methylphenyl)sulfonyl)pyrrolidin-2-yl)methanol trifluoroacetic acid salt] |  | > 10 | 
6 | Cc1cc(-c2cc(-c3cc(S(=O)(=O)N4CCNC(=O)C4)ccc3C)cnc2N)on1 [Example 19.17, 4-((3-(6-amino-5-(3-methylisoxazol-5-yl)pyridin-3-yl)-4-methylphenyl)sulfonyl) piperazin-2-one trifluoroacetic acid salt] |  | > 10 | 
7 | COCC1CCN(S(=O)(=O)c2ccc(C)c(-c3cnc(N)c(-c4cc(C)no4)c3)c2)CC1 [Example 19.18, 5-(5-((4-(methoxymethyl)piperidin-1-yl)sulfonyl)-2-methylphenyl)-3-(3-methylisoxazol-5-yl)pyridin-2-amine trifluoroacetic acid salt] |  | > 10 | 
8 | COC[C@@H]1COCCN1S(=O)(=O)c1ccc(C)c(-c2cnc(N)c(-c3cc(C)no3)c2)c1 [Example 19.20, (R)-5-(5-((3-(methoxymethyl)morpho-lino)sulfonyl)-2-methylphenyl)-3-(3-methylisoxazol-5-yl)pyridin-2-amine trifluoroacetic acid salt] |  | > 10 | 
9 | Cc1ncc(-c2cc(-c3cc(S(=O)(=O)NC4CC5(CC(O)C5)C4)ccc3C)cnc2N)s1 (stereo not drawn) [Example 28, 3-(6-Amino-5-(2-methylthiazol-5-yl)pyridin-3-yl)-N-(6-hydroxyspiro[3.3]heptan-2-yl)-4-methylbenzenesulfonamide] | 0.13 |  | 
10 | COC1(C)CN(S(=O)(=O)c2ccc(C)c(-c3cnc(N)c(-c4nc(C)no4)c3)c2)C1 [Example 37.2, 5-(5-((3-Methoxy-3-methylazetidin-1-yl)sulfonyl)-2-methylphenyl)-3-(3-methyl-1,2,4-oxadiazol-5-yl)pyridin-2-amine] |  | > 10 | 
11 | Cc1noc(-c2cc(-c3cc(S(=O)(=O)NC[C@H]4CCCO4)ccc3C)cnc2N)n1 [Example 37.5, (R)-3-(6-Amino-5-(3-methyl-1,2,4-oxadiazol-5-yl)pyridin-3-yl)-4-methyl-N-((tetrahydrofuran-2-yl)methyl)benzenesulfonamide] |  | > 10 | 
12 | Cc1cc(-c2cc(-c3cc(S(=O)(=O)NC4CCOCC4)ccc3C)cnc2N)on1 [Example 37.8, 3-(6-Amino-5-(3-methylisoxazol-5-yl)pyridin-3-yl)-4-methyl-N-(tetrahydro-2H-pyran-4-yl)benzenesulfonamide] | 6.4 |  | 5.7
13 | COC1(C)CN(S(=O)(=O)c2ccc(C)c(-c3cnc(N)c(-c4cc(C)no4)c3)c2)C1 [Example 37.20, 5-(5-((3-Methoxy-3-methylazetidin-yl)sulfonyl)-2-methylphenyl)-3-(3-methylisoxazol-5-yl)pyridin-2-amine] |  | > 10 | 
14 | Cc1noc(-c2cc(-c3cc(S(=O)(=O)NC(CO)C4CCOC4)ccc3C)cnc2N)n1 (stereo not drawn) [Example 37.21, 3-(6-Amino-5-(3-methyl-1,2,4-oxadiazol-5-yl)pyridin-3-yl)-N-(2-hydroxy-1-(tetrahydrofuran-3-yl)ethyl)-4-methylbenzenesulfonamide] |  | > 10 | 
15 | Cc1noc(-c2cc(-c3cc(S(=O)(=O)N4CC[C@H](O)C4)ccc3C)cnc2N)n1 [Example 37.32, (S)-1-((3-(6-Amino-5-(3-methyl-1,2,4-oxadiazol-5-yl)pyridin-3-yl)-4-methylphenyl)sulfonyl)pyrrolidin-3-ol hydrochloride] |  | > 10 | 
16 | Cc1noc(-c2cc(-c3cc(S(=O)(=O)NC4CCN(C(C)C)CC4)ccc3C)cnc2N)n1 [Example 37.34, 3-(6-Amino-5-(3-methyl-1,2,4-oxadiazol-5-yl)pyridin-3-yl)-N-(1-isopropylpiperidin-4-yl)-4-methylbenzenesulfonamide] |  | > 10 | 

Row | Compound | IC50 (mTOR) [µM] | IC50 (Vps34) [µM] | IC50 (PI 4-kinase beta) [µM]
17 | Cc1noc(-c2cc(-c3cc(S(=O)(=O)NCC(C)(F)F)ccc3C)cnc2N)n1 [Example 37.38, 3-(6-Amino-5-(3-methyl-1,2,4-oxadiazol-5-yl)pyridin-3-yl)-N-(2,2-difluoropropyl)-4-methylbenzenesulfonamide] |  | > 10 | 
18 | Cc1ccc(S(=O)(=O)NCC(C)(C)O)cc1-c1cnc(N)c(-c2cc(C(=O)N3CCOCC3)no2)c1 [Example 42, 3-(6-Amino-5-(3-(morpholine-4-carbonyl)isoxazol-5-yl)pyridin-3-yl)-N-(2-hydroxy-2-methylpropyl)-4-methylbenzenesulfonamide] |  | > 10 | 
19 | CONS(=O)(=O)c1ccc(C)c(-c2cnc(N)c(-c3nc(C)no3)c2)c1 [Example 46, 3-(6-Amino-5-(3-methyl-1,2,4-oxadiazol-5-yl)pyridin-3-yl)-N-methoxy-4-methylbenzenesulfonamide] |  | > 10 | 
20 | Cc1noc(-c2cc(-c3cc(S(=O)(=O)NCC4CCCO4)ccc3C)cnc2N)n1 (stereo not drawn) [Example 57, 3-(6-Amino-5-(3-methyl-1,2,4-oxadiazol-5-yl)pyridin-3-yl)-4-methyl-N-((tetrahydrofuran-2-yl)methyl)benzenesulfonamide] |  | > 10 | 
21 | Cc1ccc(S(=O)(=O)NCC(C)(C)O)cc1-c1cnc(N)c(-c2ccn(C)c2)c1 [Example 58, 3-(6-Amino-5-(1-methyl-1H-pyrrol-3-yl)pyridin-3-yl)-N-(2-hydroxy-2-methylpropyl)-4-methylbenzenesulfonamide hydrochloride] |  | > 10 | 
22 | Cc1ccc(S(=O)(=O)NCC(C)(C)O)cc1-c1cnc(N)c(-c2cnn(C)c2C)c1 [Example 61, 3-(6-Amino-5-(1,5-dimethyl-1H-pyrazol-4-yl)pyridin-3-yl)-N-(2-hydroxy-2-methylpropyl)-4-methylbenzenesulfonamide] | 6.7 |  | 1.7
23 | Cc1ccc(S(=O)(=O)NCC(C)(C)O)cc1-c1cnc(N)c(-c2cnoc2C)c1 [Example 62, 3-(6-Amino-5-(5-methylisoxazol-4-yl)pyridin-3-yl)-N-(2-hydroxy-2-methylpropyl)-4-methylbenzenesulfonamide] |  | > 10 | 
24 | Cc1ccc(S(=O)(=O)NCC(C)(C)O)cc1-c1cnc(N)c(-c2cn(C)nn2)c1 [Example 63, 3-(6-Amino-5-(1-methyl-1H-1,2,3-triazol-4-yl)pyridin-3-yl)-N-(2-hydroxy-2-methylpropyl)-4-methylbenzenesulfonamide hydrochloride] | 5.3 |  | 
25 | Cc1ccc(S(=O)(=O)NCC(C)(C)O)cc1-c1cnc(N)c(-c2nc(C(F)F)no2)c1 [Example 71, 3-(6-Amino-5-(3-(difluoromethyl)-1,2,4-oxadiazol-5-yl)pyridin-3-yl)-N-(2-hydroxy-2-methylpropyl)-4-methylbenzenesulfonamide hydrochloride] |  | > 10 | 
26 | Cc1cccc(NS(=O)(=O)c2ccc(C)c(-c3cnc(N)c(-c4nc(C)no4)c3)c2)n1 [Example 72, 3-(6-Amino-5-(3-methyl-1,2,4-oxadiazol-5-yl)pyridin-3-yl)-4-methyl-N-(6-methylpyridin-2-yl)benzenesulfonamide] | 0.37 |  | 
27 | Cc1ccc(S(=O)(=O)NCC(C)(C)O)cc1-c1cnc(N)c(-n2cncn2)c1 [Example 81, 3-(6-Amino-5-(1H-1,2,4-triazol-1-yl)pyridin-3-yl)-N-(2-hydroxy-2-methylpropyl)-4-methylbenzenesulfonamide hydrochloride] | 6.6 |  | 
28 | Cc1ncc(-c2cc(-c3cc(S(=O)(=O)N[C@H]4CC[C@H](O)CC4)ccc3C)cnc2N)o1 [Example 98, 3-(6-amino-5-(2-methyloxazol-5-yl)pyridin-3-yl)-N-((1r,4r)-4-hydroxycyclohexyl)-4-methylbenzenesulfonamide hydrochloride] |  | 2.5 | 
29 | Cc1ncc(-c2cc(-c3cc(S(=O)(=O)NCC(C)(C)CO)ccc3C)cnc2N)o1 [Example 104.2, 3-(6-amino-5-(2-methyloxazol-5-yl)pyridin-3-yl)-N-(3-hydroxy-2,2-dimethylpropyl)-4-methylbenzenesulfon-amide] |  | 3.3 | 
30 | Cc1ncc(-c2cc(-c3cc(S(=O)(=O)NCC(F)(F)F)ccc3C)cnc2N)o1 [Example 104.9, 3-(6-amino-5-(2-methyloxazol-5-yl)pyridin-3-yl)-4-methyl-N-(2,2,2-trifluoroethyl)benzene-sulfonamide] |  | 1.6 | 1.2
31 | Cc1ncc(-c2cc(-c3cc(S(=O)(=O)NCC4CC4)ccc3C)cnc2N)o1 [Example 104.12, 3-(6-amino-5-(2-methyloxazol-5-yl)pyridin-3-yl)-N-(cyclopropylmethyl)-4-methylbenzenesulfon-amide] |  | 1.4 | 
32 | Cc1ncc(-c2cc(-c3cc(S(=O)(=O)NC4CC4)ccc3C)cnc2N)o1 [Example 104.14, 3-(6-amino-5-(2-methyloxazol-5-yl)pyridin-3-yl)-N-cyclopropyl-4-methylbenzenesulfon-amide] |  | 1.2 | 1.2

Where a name gives a salt, the structure may show the parent alone.
